Laboratory results reported in patent US20140363454A1, “Antibody-Drug Conjugates, Compositions and Methods of Use” (Igenica Biotherapeutics, Inc., priority 2013, published 2014).

Tests used:
BT474 cell xenograft = conditions: C.B-17 scid mice, once intravenously 1 mg/Kg
[1] = tested on: BT474 (HER2+ human breast carcinoma) cells; test: Cell proliferation assay (ATPLite), BT474 cells; format: cell-based; conditions: 3 days, ATP readout

Row | Substance | TGI (tumor growth inhibition) (BT474 cell xenograft) | toxicity based on animal weight measurements (BT474 cell xenograft) | potency for inhibition of tumor cell growth [1]
1 | trastuzumab-MC-T4 | significant TGI compared to the control | No toxicity was observed | approximately equipotent and considerably more potent than the parent trastuzumab antibody
2 | trastuzumab-dTSPEG-T4 | comparable TGI to than the comparator ADCs | No toxicity was observed | approximately equipotent and considerably more potent than the parent trastuzumab antibody
3 | trastuzumab-dTSPEG-MMAF | comparable TGI to than the comparator ADCs | No toxicity was observed | approximately equipotent and considerably more potent than the parent trastuzumab antibody
